Assay results from US20250313530A1, “SMALL MOLECULE INHIBITORS OF INTERLEUKIN-4 AND USES THEREOF” (Trustees of Boston University, priority 2024, published 2025).

Molecular target: T1, IL-4 (Homo sapiens, UniProt P05112)
T1 construct: purchased Acros Biosystems IL4-H4218; host or cells: HEK-293
T1 sequence (P05112 25-153): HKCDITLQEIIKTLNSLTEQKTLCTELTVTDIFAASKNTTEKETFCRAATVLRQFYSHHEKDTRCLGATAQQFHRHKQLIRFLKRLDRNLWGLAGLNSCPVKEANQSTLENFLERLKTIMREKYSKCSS
Experiment: HEK-Blue IL-4/IL-13 reporter assay, IL-4 inhibition
Type: cell-based
Protocol: HEK-Blue IL-4/IL-13 Inhibition assay. HEK-Blue IL-4/IL-13 reporter cell lines were purchased from Invivogen and cultured in DMEM with 10% Heat Inactivated Fetal Bovine Serum (FBS), 100 U/ml-100 μg/ml Pen-Strep, 10 μg/ml blasticidin, 100 μg/ml Normocin and 100 μg/ml Zeocin. Cells were tested for secreted embryonic alkaline phosphatase (SEAP) production induced by IL-4 alone prior to small molecule screening.
22.5 μl of small molecule in DMEM 4% DMSO was added to 22.5 μl of 1 ng/ml IL-4 in DMEM in a non-binding 96-well reaction plate for 30 minutes at room temperature. The reaction plate was further incubated for 30-60 min at 37° C. HEK-Blue IL-4/IL-13 reporter cell line was used between passages 11-17. […] Measurements were done in triplicate. The plate was incubated for ˜22-24 hours at 37° C./5% CO2. Quanti-Blue dye was prepared as per the manufacturer's recommendation and 160 μl was dispensed in each well of a 96-well plate (avoid edges to avoid evaporation), 40 μl of cell supernatant was added to the same plate and incubated for 3 hours at 37° C./5% CO2. Optical density was then measured at 650 nm using Molecular Devices SpectraMax M5 Microplate reader. Data was analyzed and plotted using GraphPad Prism 9.2.0.

Compound: N#Cc1c(-c2ccc(O)cc2)cc(-c2ccc(F)cc2)[nH]c1=O [Compound 46, 6-(4-fluorophenyl)-4-(4-hydroxyphenyl)-2-oxo-1,2-dihydropyridine-3-carbonitrile]
- inhibition at 10 µM: 47.2 ± 12.1%
